Assay results reported in PubChem BioAssay (NCI).
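Step 1: Grow cells in 96-well plates. Step 2: Expose to compound for 48 hours at 5 concentrations. Step 3: Interpolate endpoints linearly; if unreached, use highest concentration. The concentration for 50% growth inhibition is given as GI50. TGI denotes the concentration required for complete inhibition of growth.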

How the values were obtained:
Experiment in all cases: NCI anticancer screen, dose series, 48 h
[1] = system: HT29 colon
[2] = system: SK-MEL-28 melanoma
[3] = system: HL-60(TB) leukemia
[4] = system: HOP-62 NSCLC
[5] = system: MALME-3M melanoma
[6] = system: SK-MEL-5 melanoma
[7] = system: A549 NSCLC
[8] = system: NCI-H522 lung
[9] = system: HCT-116 colon
[10] = system: OVCAR-5 ovarian
[11] = system: SN12C renal
[12] = system: SNB-19 CNS
[13] = system: SF-295 CNS
[14] = system: MOLT-4 leukemia
[15] = system: T-47D breast
[16] = system: SR leukemia
[17] = system: SK-MEL-2 melanoma
[18] = system: BT-549 breast
[19] = system: NCI-H460 lung
[20] = system: LOX IMVI melanoma
[21] = system: U251 CNS
[22] = system: SF-268 CNS
[23] = system: UACC-62 melanoma
[24] = system: TK-10 renal
[25] = system: SNB-75 CNS
[26] = system: COLO 205 colon
[27] = system: EKVX NSCLC
[28] = system: OVCAR-4 ovarian
[29] = system: PC-3 prostate
[30] = system: KM12 colon
[31] = system: A498 renal
[32] = system: HCT-15 colon
[33] = system: SW-620 colon
[34] = system: OVCAR-8 ovarian
[35] = system: SK-OV-3 ovarian
[36] = system: UACC-257 melanoma
[37] = system: HS 578T breast
[38] = system: NCI-H23 lung
[39] = system: OVCAR-3 ovarian
[40] = system: IGROV1 ovarian
[41] = system: MDA-MB-231 breast
[42] = system: 786-0 renal
[43] = system: CCRF-CEM leukemia
[44] = system: RXF 393 renal
[45] = system: NCI/ADR-RES ovarian
[46] = system: DU-145 prostate
[47] = system: HOP-92 NSCLC
[48] = system: MDA-N
[49] = system: RPMI-8226 leukemia
[50] = system: UO-31 renal
[51] = system: NCI-H322M lung
[52] = system: SF-539 CNS
[53] = system: MDA-MB-435
[54] = system: ACHN renal
[55] = system: MCF7 breast
[56] = system: M14 melanoma
[57] = system: K-562 leukemia
[58] = system: CAKI-1 renal

For `COc1cccc(C[N+](C)(CCCl)CCCl)c1[N+](=O)[O-]`, the GI50 [1] was > 100 µM, the TGI [1] was > 100 µM and the GI50 [2] was > 100 µM. For the same compound, the TGI [2] was > 100 µM, the GI50 [3] was > 100 µM and the TGI [3] was > 100 µM. The GI50 [4] was > 100 µM, the TGI [4] was > 100 µM and the GI50 [5] was > 100 µM. The TGI [5] was > 100 µM, the GI50 [6] was > 100 µM and the TGI [6] was > 100 µM. For the same compound, the GI50 [7] was > 100 µM, the TGI [7] was > 100 µM and the GI50 [8] was > 100 µM. For the same compound, the TGI [8] was > 100 µM, the GI50 [9] was > 100 µM and the TGI [9] was > 100 µM. For the same compound, the GI50 [10] was > 100 µM, the TGI [10] was > 100 µM and the GI50 [11] was > 100 µM. For the same compound, the TGI [11] was > 100 µM, the GI50 [12] was > 100 µM and the TGI [12] was > 100 µM. For the same compound, the GI50 [13] was > 100 µM, the TGI [13] was > 100 µM and the GI50 [14] was 85.1 µM. For the same compound, the TGI [14] was > 100 µM, the GI50 [15] was 25.2 µM and the TGI [15] was > 100 µM. For the same compound, the GI50 [16] was 13.6 µM, the TGI [16] was > 100 µM and the GI50 [17] was > 100 µM. For the same compound, the TGI [17] was > 100 µM, the GI50 [18] was > 100 µM and the TGI [18] was > 100 µM. For the same compound, the GI50 [19] was 80.5 µM, the TGI [19] was > 100 µM and the GI50 [20] was > 100 µM. For the same compound, the TGI [20] was > 100 µM, the GI50 [21] was > 100 µM and the TGI [21] was > 100 µM. The GI50 [22] was > 100 µM, the TGI [22] was > 100 µM and the GI50 [23] was > 100 µM. For the same compound, the TGI [23] was > 100 µM, the GI50 [24] was > 100 µM and the TGI [24] was > 100 µM. The GI50 [25] was 45.6 µM, the TGI [25] was > 100 µM and the GI50 [26] was 72.4 µM. The TGI [26] was > 100 µM, the GI50 [27] was > 100 µM and the TGI [27] was > 100 µM. For the same compound, the GI50 [28] was > 100 µM, the TGI [28] was > 100 µM and the GI50 [29] was > 100 µM. The TGI [29] was > 100 µM, the GI50 [30] was > 100 µM and the TGI [30] was > 100 µM. The GI50 [31] was > 100 µM, the TGI [31] was > 100 µM and the GI50 [32] was > 100 µM. For the same compound, the TGI [32] was > 100 µM, the GI50 [33] was > 100 µM and the TGI [33] was > 100 µM. The GI50 [34] was > 100 µM, the TGI [34] was > 100 µM and the GI50 [35] was > 100 µM. The TGI [35] was > 100 µM, the GI50 [36] was > 100 µM and the TGI [36] was > 100 µM. For the same compound, the GI50 [37] was > 100 µM, the TGI [37] was > 100 µM and the GI50 [38] was > 100 µM. The TGI [38] was > 100 µM, the GI50 [39] was > 100 µM and the TGI [39] was > 100 µM. For the same compound, the GI50 [40] was > 100 µM, the TGI [40] was > 100 µM and the GI50 [41] was > 100 µM. For the same compound, the TGI [41] was > 100 µM, the GI50 [42] was > 100 µM and the TGI [42] was > 100 µM. The GI50 [43] was > 100 µM, the TGI [43] was > 100 µM and the GI50 [44] was 64.6 µM. The TGI [44] was > 100 µM, the GI50 [45] was > 100 µM and the TGI [45] was > 100 µM. For the same compound, the GI50 [46] was > 100 µM, the TGI [46] was > 100 µM and the GI50 [47] was > 100 µM. The TGI [47] was > 100 µM, the GI50 [48] was > 100 µM and the TGI [48] was > 100 µM. For the same compound, the GI50 [49] was > 100 µM, the TGI [49] was > 100 µM and the GI50 [50] was > 100 µM. The TGI [50] was > 100 µM, the GI50 [51] was > 100 µM and the TGI [51] was > 100 µM. The GI50 [52] was > 100 µM, the TGI [52] was > 100 µM and the GI50 [53] was > 100 µM. The TGI [53] was > 100 µM, the GI50 [54] was 40.1 µM and the TGI [54] was > 100 µM. For the same compound, the GI50 [55] was > 100 µM, the TGI [55] was > 100 µM and the GI50 [56] was > 100 µM. The TGI [56] was > 100 µM, the GI50 [57] was > 100 µM and the TGI [57] was > 100 µM. For the same compound, the GI50 [58] was 33.9 µM and the TGI [58] was > 100 µM.
